# How the values were obtained:
# By UniProt entry, the sequences of proteins in these tests, tags left out. Where a name states a change or a piece, a line headed by the entry shows the natural chain unless it says otherwise.
# UniProt P53341: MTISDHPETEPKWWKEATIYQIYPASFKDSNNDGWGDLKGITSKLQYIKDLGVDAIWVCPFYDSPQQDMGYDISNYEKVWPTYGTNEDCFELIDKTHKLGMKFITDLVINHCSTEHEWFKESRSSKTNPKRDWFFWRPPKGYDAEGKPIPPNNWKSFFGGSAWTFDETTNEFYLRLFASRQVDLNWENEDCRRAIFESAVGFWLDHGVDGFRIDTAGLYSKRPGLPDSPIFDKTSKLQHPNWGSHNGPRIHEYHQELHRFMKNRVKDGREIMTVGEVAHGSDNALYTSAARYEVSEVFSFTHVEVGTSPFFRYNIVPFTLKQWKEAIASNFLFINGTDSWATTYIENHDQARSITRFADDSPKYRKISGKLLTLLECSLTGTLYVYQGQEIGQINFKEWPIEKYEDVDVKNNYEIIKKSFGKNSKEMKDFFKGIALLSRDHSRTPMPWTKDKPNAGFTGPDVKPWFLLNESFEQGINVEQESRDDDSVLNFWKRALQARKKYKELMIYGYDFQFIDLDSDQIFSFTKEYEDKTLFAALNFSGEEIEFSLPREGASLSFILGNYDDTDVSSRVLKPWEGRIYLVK
# [1] = molecular target: T1, α-glucosidase (Saccharomyces cerevisiae, UniProt P53341); test: biochemical; assay type: binding
# T1 construct: purchased Shanghai Yuanye Biotechnology Co., Shanghai, China Lot No. M23HS178879 (catalogue number not given)
# Experimental: SPR analysis was performed using the Biacore 8K system (GE Healthcare, Uppsala, Sweden). α-Glucosidase (0.05 mg/mL) was fixed on the CM5 sensor chip by an amine coupling kit. Subsequently, various concentrations of the 16 flavonoids dissolved in 5% DMSO were continuously injected onto the surface of α-glucosidase coated surface. After each sample injection, the sensor chip surface was washed and regenerated with running buffer (PBS) at a flow rate of 30 µL/min. According to the 1:1 Langmuir model, the equilibrium dissociation constant (KD) was calculated by the Biacore evaluation software. For sensorgrams without significant kinetic features, the KD values were calculated using the steady-state analysis.
# [2] = molecular target: T2, Saccharomyces cerevisiae α-glucosidase (Saccharomyces cerevisiae, UniProt P53341); test: biochemical; conditions: IC50, α-glucosidase 0.2 U/mL, 5 mM pNPG, PBS pH 6.8, 37 °C
# T2 construct: purchased Shanghai Yuanye Biotechnology Co., Shanghai, China Lot No. M23HS178879 (catalogue number not given)
# Experimental: The α-glucosidase inhibitory effects of flavonoids were evaluated as in a previous report with slight modifications (including changes in the concentrations of the enzyme, substrate, and Na2CO3). Briefly, 50 μL of phosphate-buffered saline (PBS, 0.1 M, pH 6.8), the test compound, and α-glucosidase (0.2 U/mL) were preincubated in a 96-well plate at 37 °C for 10 min. The reaction was then initiated by adding 50 μL of 5 mM pNPG as the substrate. Subsequently, the 96-well plate was incubated for an additional 30 min at 37 °C, then 50 μL of 0.2 M Na2CO3 was added to terminate the reaction. Absorbance was measured at under 405 nm.
smiles,measurement,setting,value
"O=C1C[C@@H](c2ccc(O)cc2)Oc2cc(O)cc(O)c21 [C5, naringenin]",Kd,[1],294 µM
same,IC50,[2],226 ± 36.1 µM

# — article PMC12114633, “α-Glucosidase Inhibition Mechanism and Anti-Hyperglycemic Effects of Flavonoids from Astragali Radix and Their Mixture Effects” (Pharmaceuticals, 2025)
